Tests used:
MDA-MB-231 [1] = assay: drug sensitivity score (DSS), cytotoxicity CellTox Green; higher = more cytotoxic; extreme values may be limits of the assay; conditions: 72 h
MDA-MB-231 [2] = assay: drug sensitivity score (DSS), cell viability CellTiter-Glo; higher = more sensitive; extreme values may be limits of the assay; conditions: 72 h
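For drug sensitivity score (DSS), cytotoxicity CellTox Green in this document: DSS summarises each dose–response curve by combining IC50, EC50, maximal inhibition and efficacy across drug concentrations.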

`NCc1ccc(OCCCc2sc(-c3ccc4c(c3)/C(=N/Nc3nc5ccccc5s3)CCC4)nc2C(=O)O)cc1` [WEHI-539] was tested, and the drug sensitivity score (MDA-MB-231 [1]; shRNA: shPPFIA1_1) was 5.6 DSS, the drug sensitivity score (MDA-MB-231 [1]; shRNA: shScramble) was 2.5 DSS and the drug sensitivity score (MDA-MB-231 [2]; shRNA: shPPFIA1_1) was 1.6 DSS. The drug sensitivity score (MDA-MB-231 [2]; shRNA: shScramble) was 1 DSS.
